Test results published in ChEMBL document CHEMBL5241126, “Design and synthesis of 6-methylpyridin-2-one derivatives as novel and potent GluN2A positive allosteric modulators for the treatment of cognitive impairment” (Bioorg Med Chem, 2023).

Amino acid sequences for entries named in this document (tags omitted). A change or cut given only in a name is not applied to a line headed by its entry.
UniProt Q13224, whole entry, looked up: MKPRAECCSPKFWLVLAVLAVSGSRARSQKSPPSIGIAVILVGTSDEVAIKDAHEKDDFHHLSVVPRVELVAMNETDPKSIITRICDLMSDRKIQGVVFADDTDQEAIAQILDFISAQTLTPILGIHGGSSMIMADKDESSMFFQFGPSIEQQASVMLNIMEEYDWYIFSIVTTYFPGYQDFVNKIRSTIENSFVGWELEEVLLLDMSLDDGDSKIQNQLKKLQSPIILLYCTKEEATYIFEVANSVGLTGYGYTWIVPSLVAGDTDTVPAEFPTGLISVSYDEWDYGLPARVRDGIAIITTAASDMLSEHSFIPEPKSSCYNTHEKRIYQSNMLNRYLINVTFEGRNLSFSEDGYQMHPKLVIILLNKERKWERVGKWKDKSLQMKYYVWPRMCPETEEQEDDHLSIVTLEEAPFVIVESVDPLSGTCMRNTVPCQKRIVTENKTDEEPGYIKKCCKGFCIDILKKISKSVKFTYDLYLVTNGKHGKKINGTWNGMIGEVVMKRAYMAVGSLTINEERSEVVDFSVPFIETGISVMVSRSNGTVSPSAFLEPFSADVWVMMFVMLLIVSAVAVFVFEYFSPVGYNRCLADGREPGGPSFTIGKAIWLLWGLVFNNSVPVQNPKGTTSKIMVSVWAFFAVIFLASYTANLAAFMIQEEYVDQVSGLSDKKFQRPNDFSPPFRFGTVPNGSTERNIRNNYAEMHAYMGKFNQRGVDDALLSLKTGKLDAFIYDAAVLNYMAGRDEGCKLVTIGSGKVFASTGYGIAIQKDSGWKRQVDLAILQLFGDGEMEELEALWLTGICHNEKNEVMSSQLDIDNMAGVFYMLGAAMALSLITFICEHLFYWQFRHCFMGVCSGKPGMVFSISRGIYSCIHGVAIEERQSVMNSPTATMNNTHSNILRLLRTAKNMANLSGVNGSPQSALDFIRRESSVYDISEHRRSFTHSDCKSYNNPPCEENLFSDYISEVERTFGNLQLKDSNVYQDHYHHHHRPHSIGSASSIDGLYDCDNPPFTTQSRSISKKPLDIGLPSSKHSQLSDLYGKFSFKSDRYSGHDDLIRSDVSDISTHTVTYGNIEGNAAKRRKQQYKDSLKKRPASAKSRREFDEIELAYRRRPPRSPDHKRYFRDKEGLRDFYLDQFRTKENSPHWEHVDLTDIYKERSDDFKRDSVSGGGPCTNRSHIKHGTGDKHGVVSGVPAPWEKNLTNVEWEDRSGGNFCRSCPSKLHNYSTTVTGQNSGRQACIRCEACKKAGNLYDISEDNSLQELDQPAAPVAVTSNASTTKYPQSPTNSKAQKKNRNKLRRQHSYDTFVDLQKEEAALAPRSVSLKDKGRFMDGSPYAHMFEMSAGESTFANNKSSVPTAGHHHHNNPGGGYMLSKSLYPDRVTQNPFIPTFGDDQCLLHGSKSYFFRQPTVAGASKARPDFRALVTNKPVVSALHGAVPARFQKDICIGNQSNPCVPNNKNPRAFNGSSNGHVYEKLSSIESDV
UniProt Q14957: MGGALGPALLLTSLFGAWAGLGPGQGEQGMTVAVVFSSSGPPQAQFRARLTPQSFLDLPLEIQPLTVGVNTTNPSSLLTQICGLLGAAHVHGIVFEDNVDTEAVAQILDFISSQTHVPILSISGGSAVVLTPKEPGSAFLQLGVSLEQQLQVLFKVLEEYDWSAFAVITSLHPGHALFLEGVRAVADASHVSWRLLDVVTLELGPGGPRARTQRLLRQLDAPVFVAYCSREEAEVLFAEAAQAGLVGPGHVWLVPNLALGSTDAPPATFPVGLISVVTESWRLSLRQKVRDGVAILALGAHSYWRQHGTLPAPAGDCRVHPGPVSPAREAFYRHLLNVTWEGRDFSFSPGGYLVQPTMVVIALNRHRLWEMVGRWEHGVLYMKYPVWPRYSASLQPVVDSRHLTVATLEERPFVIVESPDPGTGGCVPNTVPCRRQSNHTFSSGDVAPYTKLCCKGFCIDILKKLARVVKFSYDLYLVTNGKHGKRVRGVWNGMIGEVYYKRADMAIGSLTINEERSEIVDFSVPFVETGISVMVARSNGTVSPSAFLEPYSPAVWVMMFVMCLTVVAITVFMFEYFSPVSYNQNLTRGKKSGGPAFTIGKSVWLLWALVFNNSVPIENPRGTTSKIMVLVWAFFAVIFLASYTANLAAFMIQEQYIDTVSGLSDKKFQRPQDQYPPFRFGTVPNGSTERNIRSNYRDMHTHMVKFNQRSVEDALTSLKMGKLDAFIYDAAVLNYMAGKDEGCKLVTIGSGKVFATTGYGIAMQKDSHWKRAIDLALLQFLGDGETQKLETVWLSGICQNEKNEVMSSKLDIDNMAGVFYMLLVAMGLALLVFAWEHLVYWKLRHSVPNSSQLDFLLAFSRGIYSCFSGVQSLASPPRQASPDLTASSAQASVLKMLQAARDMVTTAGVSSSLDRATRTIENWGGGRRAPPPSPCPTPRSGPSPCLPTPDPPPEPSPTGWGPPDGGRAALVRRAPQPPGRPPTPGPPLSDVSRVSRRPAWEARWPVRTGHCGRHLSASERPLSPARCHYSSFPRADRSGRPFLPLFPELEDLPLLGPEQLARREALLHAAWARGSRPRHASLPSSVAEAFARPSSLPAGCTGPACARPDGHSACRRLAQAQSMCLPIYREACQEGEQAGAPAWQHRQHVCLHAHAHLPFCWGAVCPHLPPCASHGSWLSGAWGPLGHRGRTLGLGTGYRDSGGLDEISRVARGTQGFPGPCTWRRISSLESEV
UniProt O15399, whole entry: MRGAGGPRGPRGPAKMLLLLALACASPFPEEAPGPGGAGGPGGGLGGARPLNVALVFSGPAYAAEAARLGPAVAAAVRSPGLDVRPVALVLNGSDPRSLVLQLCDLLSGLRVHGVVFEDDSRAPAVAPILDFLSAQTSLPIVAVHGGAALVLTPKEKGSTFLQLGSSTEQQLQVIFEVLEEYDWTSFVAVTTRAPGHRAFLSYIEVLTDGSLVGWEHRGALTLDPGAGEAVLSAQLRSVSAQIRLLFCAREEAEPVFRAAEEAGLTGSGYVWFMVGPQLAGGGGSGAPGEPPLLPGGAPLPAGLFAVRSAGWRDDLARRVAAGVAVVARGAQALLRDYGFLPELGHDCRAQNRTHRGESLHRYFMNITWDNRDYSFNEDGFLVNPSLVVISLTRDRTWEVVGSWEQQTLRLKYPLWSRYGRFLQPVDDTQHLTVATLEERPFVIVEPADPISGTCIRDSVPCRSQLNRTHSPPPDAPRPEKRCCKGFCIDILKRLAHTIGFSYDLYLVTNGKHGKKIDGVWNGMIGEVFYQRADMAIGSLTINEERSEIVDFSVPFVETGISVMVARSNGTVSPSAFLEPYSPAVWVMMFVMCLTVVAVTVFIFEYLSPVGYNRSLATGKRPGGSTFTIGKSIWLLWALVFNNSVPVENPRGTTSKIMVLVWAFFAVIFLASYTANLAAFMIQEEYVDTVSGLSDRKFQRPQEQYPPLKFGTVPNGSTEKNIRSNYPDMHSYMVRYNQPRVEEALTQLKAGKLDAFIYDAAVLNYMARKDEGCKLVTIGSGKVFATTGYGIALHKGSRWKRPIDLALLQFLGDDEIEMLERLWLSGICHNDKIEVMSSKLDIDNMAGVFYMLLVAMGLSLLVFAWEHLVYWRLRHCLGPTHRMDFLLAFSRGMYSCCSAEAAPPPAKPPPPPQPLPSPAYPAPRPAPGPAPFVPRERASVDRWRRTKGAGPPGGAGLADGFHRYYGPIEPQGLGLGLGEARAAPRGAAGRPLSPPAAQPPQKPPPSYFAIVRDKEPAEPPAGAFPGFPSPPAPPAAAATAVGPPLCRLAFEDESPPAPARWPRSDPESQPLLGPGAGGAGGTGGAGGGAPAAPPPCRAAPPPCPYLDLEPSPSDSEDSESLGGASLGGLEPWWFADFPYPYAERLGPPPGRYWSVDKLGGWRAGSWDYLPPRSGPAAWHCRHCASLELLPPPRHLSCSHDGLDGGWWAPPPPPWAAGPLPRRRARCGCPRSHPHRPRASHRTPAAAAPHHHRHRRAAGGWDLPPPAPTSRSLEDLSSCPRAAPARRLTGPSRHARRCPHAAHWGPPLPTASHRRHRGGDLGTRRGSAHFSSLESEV

Columns and labels:
Format in all cases: cell-based
Settings in all cases: filed as positive allosteric modulator
[1] = biological target: Glutamate receptor ionotropic, NMDA 2B (Homo sapiens) (UniProt Q13224); assay: Positive allosteric modulator activity at GluN2B NMDA receptor (unknown origin) expressed in CHO cells co-expressing GluN1a assessed as maximum potentiation at 30 uM in the presence of L-glutamate and glycine by Ca2+ influx assay
[2] = biological target: Glutamate receptor ionotropic, NMDA 2C (Homo sapiens) (UniProt Q14957); assay: Positive allosteric modulator activity at GluN2C NMDA receptor (unknown origin) expressed in CHO cells co-expressing GluN1a assessed as maximum potentiation at 30 uM in the presence of L-glutamate and glycine by Ca2+ influx assay
[3] = biological target: Glutamate receptor ionotropic, NMDA 2D (Homo sapiens) (UniProt O15399); assay: Positive allosteric modulator activity at GluN2D NMDA receptor (unknown origin) expressed in CHO cells co-expressing GluN1a assessed as maximum potentiation at 30 uM in the presence of L-glutamate and glycine by Ca2+ influx assay

SMILES: Cc1cc(Cn2nc(Br)cc2Cl)cc(=O)n1C[C@H]1C[C@@H]1C#N
- Activity [1]: < 150%
- Activity [2]: 430%
- Activity [3]: 310%
